Laboratory results from ChEMBL document CHEMBL2069256, “Development of Toxoplasma gondii calcium-dependent protein kinase 1 (TgCDPK1) inhibitors with potent anti-toxoplasma activity” (J Med Chem, 2012).

Tested on: Toxoplasma gondii
Assay: microbe, parasite or virus in culture
Settings: 44 h

`COc1ccc2cc(-c3nn(CC4CCNCC4)c4ncnc(N)c34)ccc2c1` gave an EC50 of 410 nM.
